Drawing on ChEMBL document CHEMBL4359846, “Design, synthesis, and antifibrosis evaluation of 4-(benzo-[c][1,2,5]thiadiazol-5-yl)-3(5)-(6-methyl- pyridin-2-yl)pyrazole and 3(5)-(6-methylpyridin- 2-yl)-4-(thieno-[3,2,-c]pyridin-2-yl)pyrazole derivatives” (Eur J Med Chem, 2019), this text covers inhibition for two compounds.

The target of assay [1] is T1, TGF-beta receptor type-1 (Homo sapiens) (UniProt P36897).
T1 sequence (whole entry): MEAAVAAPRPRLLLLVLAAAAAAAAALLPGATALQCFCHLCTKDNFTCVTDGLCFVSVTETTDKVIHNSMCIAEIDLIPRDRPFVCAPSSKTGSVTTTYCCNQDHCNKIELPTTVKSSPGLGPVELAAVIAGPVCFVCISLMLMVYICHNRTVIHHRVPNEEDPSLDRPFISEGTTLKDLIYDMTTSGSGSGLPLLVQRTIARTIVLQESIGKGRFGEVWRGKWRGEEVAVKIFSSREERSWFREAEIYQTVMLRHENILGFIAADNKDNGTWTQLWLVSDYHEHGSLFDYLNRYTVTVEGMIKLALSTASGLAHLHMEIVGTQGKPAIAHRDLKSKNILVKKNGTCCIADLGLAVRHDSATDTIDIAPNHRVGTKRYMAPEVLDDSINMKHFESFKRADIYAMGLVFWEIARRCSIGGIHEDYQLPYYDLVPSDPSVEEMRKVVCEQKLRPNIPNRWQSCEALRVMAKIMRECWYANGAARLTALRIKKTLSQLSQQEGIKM
As to the kind of experiment: Inhibition of ALK5 in human LX2 cells assessed as reduction in TGFbeta-induced collagen 1 production pretreated for 1 hr followed by TGFbeta addition and measured after 12 hrs by DAPI staining based immunocytochemistry analysis by confocal laser scanning microscopic method. Type of assay: cell-based.

For assay [2], the target named is T1, TGF-beta receptor type-1 (Homo sapiens). As to the kind of experiment: Inhibition of ALK5 in human LX2 cells assessed as reduction in TGFbeta-induced alphaSMA production pretreated for 1 hr followed by TGFbeta addition and measured after 12 hrs by DAPI staining based immunocytochemistry analysis by confocal laser scanning microscopic method. Type of assay: cell-based.

In the case of `Cc1cccc(-c2nn(CC(=S)Nc3cccc(F)c3)cc2-c2ccc3nsnc3c2)n1`, the inhibition result in assay [1] and in assay [2] was “Dose-dependent effect” throughout.

In the case of `Cc1cccc(-c2nn(CC(=O)Nc3ccccc3)cc2-c2cc3cnccc3s2)n1`, the inhibition entry in assay [1] and in assay [2] was “Dose-dependent effect” each time.
